The values that follow are results of earlier work, collected in patent US20250228953A1, “INTRACELLULAR TARGETING OF OLIGONUCLEOTIDES” (Entrada Therapeutics, Inc., priority 2021, published 2025).

SMILES strings stand for the structures.

The conditions of the data set: as reported by Tien, et al.; cited from earlier work.

Take `O=C(O)[C@@H]1CCCN1` [Pro, Proline]: the “SASA, Theoretical” value is given as 159.0 Å^2.
